From ChEMBL document CHEMBL4304752, “Synthesis and Molecular Properties of Nerve Agent Reactivator HLö-7 Dimethanesulfonate” (2019)

How the values were obtained:
[1] = target: T1, Acetylcholinesterase (Mus musculus) (UniProt P21836); assay: Ex vivo reactivation of GB-induced inhibition of C57/Bl6 mouse AChE assessed as restoration of mouse diaphragm AChE activity at 50 to 200 uM using acetylthiocholine iodide as substrate by mouse phrenic nerve hemidiaphragm assay
T1 sequence (whole entry): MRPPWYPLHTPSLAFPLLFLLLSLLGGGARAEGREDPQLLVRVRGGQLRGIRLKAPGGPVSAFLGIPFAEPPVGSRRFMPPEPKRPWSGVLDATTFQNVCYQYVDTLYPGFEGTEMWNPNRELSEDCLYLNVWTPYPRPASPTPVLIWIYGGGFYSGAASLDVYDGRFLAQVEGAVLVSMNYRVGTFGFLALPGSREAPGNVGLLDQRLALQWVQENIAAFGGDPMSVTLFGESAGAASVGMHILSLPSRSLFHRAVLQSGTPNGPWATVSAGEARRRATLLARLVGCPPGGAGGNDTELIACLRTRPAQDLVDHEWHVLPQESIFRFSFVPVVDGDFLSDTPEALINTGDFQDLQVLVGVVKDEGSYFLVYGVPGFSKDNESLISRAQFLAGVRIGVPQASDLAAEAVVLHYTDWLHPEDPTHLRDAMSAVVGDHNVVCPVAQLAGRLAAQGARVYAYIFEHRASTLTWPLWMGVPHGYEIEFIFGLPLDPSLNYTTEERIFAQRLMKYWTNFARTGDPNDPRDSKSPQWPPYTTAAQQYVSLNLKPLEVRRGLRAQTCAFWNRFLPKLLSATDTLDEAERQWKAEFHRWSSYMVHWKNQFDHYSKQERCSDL

[2] = target: T1, Acetylcholinesterase (Mus musculus); assay: Ex vivo reactivation of GB-induced inhibition of C57/Bl6 mouse AChE assessed as restoration of muscle function at 50 to 200 uM using acetylthiocholine iodide as substrate by mouse phrenic nerve hemidiaphragm assay relative to control; design: scale not given: the % may be the effect or the level left
[3] = target: T1, Acetylcholinesterase (Mus musculus); assay: Ex vivo reactivation of VX-induced inhibition of C57/Bl6 mouse AChE assessed as restoration of muscle function at 50 to 200 uM using acetylthiocholine iodide as substrate by mouse phrenic nerve hemidiaphragm assay relative to control; design: scale not given: the % may be the effect or the level left
[4] = target: T1, Acetylcholinesterase (Mus musculus); assay: Ex vivo reactivation of VX-induced inhibition of C57/Bl6 mouse AChE assessed as restoration of mouse diaphragm AChE activity at 50 to 200 uM using acetylthiocholine iodide as substrate by mouse phrenic nerve hemidiaphragm assay
[5] = target: T1, Acetylcholinesterase (Mus musculus); assay: Ex vivo reactivation of GF-induced inhibition of C57/Bl6 mouse AChE assessed as restoration of muscle function at 50 to 200 uM using acetylthiocholine iodide as substrate by mouse phrenic nerve hemidiaphragm assay relative to control; design: scale not given: the % may be the effect or the level left
[6] = target: T1, Acetylcholinesterase (Mus musculus); assay: Ex vivo reactivation of GF-induced inhibition of C57/Bl6 mouse AChE assessed as restoration of mouse diaphragm AChE activity at 50 to 200 uM using acetylthiocholine iodide as substrate by mouse phrenic nerve hemidiaphragm assay

NC(=O)c1cc[n+](COC[n+]2ccc(/C=N/O)cc2/C=N/O)cc1
Activity [1]: Active
Activity [2]: 60%
Activity [3]: 60%
Activity [4]: Active
Activity [5]: 60%
Activity [6]: Active

Calls of active or inactive are those of the source. The calls are words filed in the database; no cut-off is given here.
